This note sets out measurements from PubChem BioAssay AID720506 (National Center for Advancing Translational Sciences (NCATS), 2013).

Amino acid sequences for entries named in this document (tags omitted).
UniProt P35462, whole entry, looked up: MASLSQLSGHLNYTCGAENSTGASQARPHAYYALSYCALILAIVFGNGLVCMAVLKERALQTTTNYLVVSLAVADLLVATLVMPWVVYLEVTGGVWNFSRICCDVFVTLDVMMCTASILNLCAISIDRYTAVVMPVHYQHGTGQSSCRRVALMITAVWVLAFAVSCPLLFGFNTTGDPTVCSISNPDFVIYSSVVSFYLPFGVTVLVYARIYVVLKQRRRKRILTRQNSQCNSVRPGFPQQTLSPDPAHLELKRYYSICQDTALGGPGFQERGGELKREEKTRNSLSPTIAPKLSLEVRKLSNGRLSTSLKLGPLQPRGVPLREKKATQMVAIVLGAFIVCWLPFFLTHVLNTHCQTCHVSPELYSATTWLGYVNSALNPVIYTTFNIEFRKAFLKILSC

Only a part is listed here, and it is no random draw. Results filed as inconclusive are left out. Calls of active or inactive are those of the source. Calls follow the shape of the dose curve; as a rule, active = well fitted activation curve with a large enough effect; inconclusive = small, poorly fitted or top-dose-only effect; inactive = flat fitted curve, though single readings scatter.

The target in the test is D(3) dopamine receptor (Homo sapiens) (UniProt P35462). The experiment in a line: qHTS of D3 Dopamine Receptor Agonist: D3 Dopamine Receptor B-arrestin Agonist Confirmatory Assay.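 Also: 100% = dopamine control response; nearly all actives have a fitted effect of over 70% in size.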 To be noted: DiscoveRx D3 beta-arrestin cells, luminescence, 90 min; at 76.9 µM (top of the series). The text has this: D3 DARs represent a very important target for the treatment of several neuropsychiatric disorders. Indeed, one of the most promising therapeutic applications for the D3 DAR is in the area of addiction and related disorders. […] These findings have been observed with a number of addictive substances including cocaine, amphetamine, nicotine, and alcohol. […] Increased D3 DAR activity can thus lead to neuroprotective and neurorestorative actions in the CNS. […] This assay is used to confirm the activity of the identified D3 dopamine receptor agonist. Activation is the desired outcome for this assay. NIH Molecular Libraries Probe Production Centers Network [MLPCN] NIH Chemical Genomics Center [NCGC] MLPCN Grant: NS064831 Assay Submitter (PI): David Sibley
Freshly passaged DiscoveRx D3 cells are plated in 1536 well white, solid bottom plates at a density of 1500 cells/well in 3microl of complete media. After an overnight incubation at 37 degrees C in 5% CO2, cells are loaded with 23nl of test compound from the compound library (as well as dopamine controls) using a 1536 pintool and incubated at 37 degrees C for 90 minutes. Two microliters of DiscoveRx reagent is then added to all cells, and they are incubated for an additional 30 - 60 minutes at room temperature. Following incubation, luminescence is measured on a ViewLux CCD-based luminometer reader using a 20 sec exposure time.
For `Cc1c2c(nc3ccccc13)SC(C(Cl)Cl)C2` (configuration not stated), the activation is inactive: 3.45%.

Take `Cc1ccc2nc3c(c(C)c2c1)CC(C(Cl)Cl)S3` (configuration not stated): the activation was inactive: 6.68%.
